Test results reported in PubChem BioAssay AID429 (Emory University Molecular Libraries Screening Center, 2006).
The entries are a selection whose mix differs from that of the whole data set. Activity calls are given as the source filed them.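 Rule for the calls: active = inhibition above 50%; inactive = the rest.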

Each molecule was assayed against Heat shock protein HSP 90-alpha (Homo sapiens) (UniProt P07900) (assay: tumor Hsp90 inhibitors, primary screen, cell lysate, fluorescence polarization, NCI-N417 lysate (AID 429;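 note: 0% = tracer plus lysate wells and 100% = tracer alone without lysate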)). Conditions: NCI-N417 lysate Hsp90, Cy3B-geldanamycin FP displacement; at 30 µM; hits give high values.

| SMILES | inhibition |
| --- | --- |
| COc1ccc(NC2CCN(CCc3ccccc3)CC2)c(OC)c1 | inactive: -1.09% |
| O=C(OC1CN2CCC1CC2)C1c2ccccc2Oc2ccccc21 (configuration not stated) | inactive: -2.98% |
| N#CC1(Nc2ccccc2)CCN(CCc2ccccc2)CC1 | inactive: -4.86% |
| N/C(=N\O)c1c(N)no[n+]1[O-] | inactive: -3.03% |
| CCC(CO)(C(=O)OC1CN2CCC1CC2)c1ccccc1 (configuration not stated) | inactive: -0.59% |
| CCOc1ncccc1C(=O)NCC1(N2CCOCC2)CCCCC1 | inactive: -3.64% |
| Fc1ccccc1NC1CCN(Cc2ccccc2)CC1 | inactive: -0.91% |
